Some results are limits rather than exact numbers.

Protein sequences, listed by entry. Tags and fused reporters are not part of them.
UniProt P30542, whole entry: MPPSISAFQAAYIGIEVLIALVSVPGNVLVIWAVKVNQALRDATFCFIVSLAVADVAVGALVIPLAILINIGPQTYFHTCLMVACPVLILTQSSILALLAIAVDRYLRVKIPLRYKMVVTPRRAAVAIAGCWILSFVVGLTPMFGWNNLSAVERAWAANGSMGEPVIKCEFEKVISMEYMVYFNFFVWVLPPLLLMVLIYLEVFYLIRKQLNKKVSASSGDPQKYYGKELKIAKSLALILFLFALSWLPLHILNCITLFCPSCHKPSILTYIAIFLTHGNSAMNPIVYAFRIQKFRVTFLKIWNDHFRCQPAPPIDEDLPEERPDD

By Ki is commonly meant a dissociation constant, usually derived from enzyme kinetics or from competition with a known ligand.

The target of experiment [1] is Human recombinant adenosine A2A receptors (Homo sapiens, UniProt P29274). Nature of the experiment: Human adenosine A2A receptor binding assay ([3H]CGS-21680).
The target of experiment [2] is Human recombinant adenosine A1 receptors (Homo sapiens, UniProt P30542). Nature of the experiment: Human adenosine A1 receptor binding assay ([3H]DPCPX). The conditions noted are these: read-out: hAl Ki; membranes of CHO-K1 cells, 1 nM [3H]DPCPX, 90 minutes at 25° C. The method, then: 2.1 Human Adenosine A1 Receptor Binding Assay
Test compound is weighed, dissolved in DMSO to make a stock solution of 10 mM, diluted with DMSO to prepare working solutions, then 100-fold diluted to the indicated concentrations. Human recombinant adenosine A1 receptors expressed in CHO-K1 cells were used to prepare membranes in incubation buffer (20 mM HEPES (4-(2-hydroxyethyl)-1-piperazineethanesulfonic acid) pH 7.4, 10 mM MgCl2, 100 mM NaCl). Test compound or vehicle (2.2 μL) was added in 200 μL of membranes and incubated with 20 μL of 1 nM [^3H] DPCPX (8-cyclopentyl-1,3-dipropylxanthine) for 90 minutes at 25° C. Non-specific binding was estimated in the presence of 100 μM R(−)-PIA ((R)—N-(1-methyl-2-phenylethyl)adenosine). The incubation was stopped by vacuum filtration onto 0.3% PEI (polyethylenimine) presoaked GF/B filters using a harvester followed by four washes with ice-cold 50 mM Tris-HCl, pH 7.4, and the radioactivity on GF/B filtermats counted in a scintillation counter (PerkinElmer Topcount™) to determine [^3H] DPCPX specifically bound. Final concentration of vehicle DMSO is 1%.
Data is fitted using the non-linear curve fitting routines in Meth-IQ software (ID Business Solutions Ltd., UK). IC50 is converted to Ki by Cheng-Prusoff equation: Ki=IC50/(1+[L]/KD) where [L] is concentration of radiolabeled ligand used in the assay.

On to `N#Cc1cccc(-c2nc(N)nc3c2cnn3Cc2c(F)cc(N)cc2F)c1F`, for which the Ki in experiment [1] (read-out: hA2A Ki, membranes of HEK-293 cells, 50 nM [3H]CGS-21680, 90 minutes at 25° C.) is less than 20 nM; in experiment [2], less than 100 nM. In addition, the “activity as dual antagonists of both A2A and A1 receptors” value in experiment [1] (summary in words of the A2A and A1 binding results of Table 2) is given as “potent activity as dual antagonists”.
